# Experimental data taken from patent US20030162222A1, “Method for selecting enzyme inhibitors” (priority 2000, published 2003).
# Experiments:
# [1] = system: tyrosine phosphorylation of cellular proteins, 32D cells expressing mutant Bcr-Abl T315M; experiment: Tyrosine phosphorylation of cellular proteins from 32D cells expressing Bcr-Abl T315M (PY99); format: cell-based, murine; conditions: STI571 1 μM or PP1 25 μM, then lysis
# Text: (§1) The protein extracts thus obtained are then examined for tyrosine phosphorylation of cellular proteins. This is done using the antibody PY99, which specifically recognises tyrosine-phosphorylated proteins.
# Src kinases = conditions: compared to ZAP70, Jak2, PKA kinases and EGF receptor kinase; Hanke et al. 1996; cited from earlier work
# [2] = system: 32D cells which express wt Bcr-Abl; experiment: Proliferation and survival of 32D cells expressing wt Bcr-Abl in the absence of interleukin-3; format: cell-based, murine; conditions: 32D cells expressing Bcr-Abl wt; no interleukin-3; PP1 25 μM or STI571 1 μM
# Text: (§2) FIG. 17 contains two diagrams showing the proliferation of STI571 or PP1-treated 32D cells, which express either wt Bcr-Abl or the mutant Bcr-Abl T315M, in the absence of interleukin-3 as a survival factor, the amount of proliferation being represented by an absolute number of cells;
# (§3) FIG. 18 contains two diagrams showing the survival of STI571-treated or PP1-treated 32D cells, which express either wt Bcr-Abl or the mutant Bcr-Abl T315M, in the absence of interleukin-3 as a survival factor, the amount of cell death being represented by the percentage of annexine-V-positive cells;
# (§4) In one example of the method of the invention either Bcr-Abl or a mutant previously identified as being resistant to kinase inhibitors PP1 and STI571, e.g. T315M, is expressed in a murine, interleukin-3-dependent cell line, 32D. Bcr-Abl is a constitutionally active tyrosine kinase which induces different forms of leukaemia in the animal model and humans.
# (§5) The example is carried out by transfixing 32D cells with a plasmid by electroporation, i.e. with the aid of a current pulse. The plasmid codes for either wt Bcr-Abl or e.g. for the mutant T315M. These plasmids additionally carry a resistance marker; in this case a puromycin resistance gene. Transfixed cells are therefore selected by means of puromycin.
# (§6) The cells are then characterised biologically. […]
# [3] = system: tyrosine phosphorylation of cellular proteins, 32D cells expressing wt Bcr-Abl; experiment: Tyrosine phosphorylation of cellular proteins from 32D cells expressing wt Bcr-Abl (PY99); format: cell-based, murine; conditions: 32D cells expressing Bcr-Abl wt; STI571 1 μM or PP1 25 μM, then lysis
# Text: as §1
# [4] = system: 32D cells which express the mutant Bcr-Abl T315M; experiment: Proliferation and survival of 32D cells expressing mutant Bcr-Abl T315M in the absence of interleukin-3; format: cell-based, murine; conditions: 32D cells expressing Bcr-Abl T315M, no interleukin-3
# Text: as §2, §3, §4, §5, §6
Structure (SMILES),phosphorylation of cellular proteins [1],selectivity for Src kinases (Src kinases),survival of cells [2],tyrosine phosphorylation of Bcr-Abl and other cellular proteins [3],cells that die off ([4]; PP1 25 μM),survival of cells ([4]; PP1 25 μM or STI571 1 μM)
Cc1ccc(-c2nn(C(C)(C)C)c3ncnc(N)c23)cc1 [PP1],clear reduction in the phosphorylation of some cellular proteins,high selectivity,prevent,substantially uniform reduction,about 30%,reduced cell survival rate
CC(C)(C)n1nc(-c2ccc(Cl)cc2)c2c(N)ncnc21 [PP2],–,high selectivity,–,–,–,–
